Assay results from patent US20200354404A1, “PEPTIDOMIMETIC AGENTS, SYNTHESIS AND USES THEREOF” (priority 2019, published 2020).

Settings: iv 1 mg/kg, individual rats

Measured: Plasma concentration

N[C@@H](Cc1ccccc1)C(=O)N[C@@H](CO)C(=O)N[C@@H](CO)C(=O)N[C@@H](CCC(=O)O)C(=O)O [FSSE, reference compound]
BLOQ: 0.017 hr | 0.033 hr | 0.083 hr | 0.167 hr | 0.33 hr | 0.50 hr

Read-outs that look alike come from different tables or passages of the source.
